For 4 compounds, Ki results are on record in ChEMBL document CHEMBL4673287, “Synthesis and biological evaluation of novel antipsychotic trans-4-(2-(1,2,4,5-tetrahydro-3H-benzo[d]azepin-3-yl)ethyl)cyclohexan-1-amine derivatives targeting dopamine/serotonin receptor subtypes” (Bioorg Med Chem Lett, 2021).

By UniProt entry, the sequences of proteins in these tests, tags left out.
UniProt P35367, whole entry: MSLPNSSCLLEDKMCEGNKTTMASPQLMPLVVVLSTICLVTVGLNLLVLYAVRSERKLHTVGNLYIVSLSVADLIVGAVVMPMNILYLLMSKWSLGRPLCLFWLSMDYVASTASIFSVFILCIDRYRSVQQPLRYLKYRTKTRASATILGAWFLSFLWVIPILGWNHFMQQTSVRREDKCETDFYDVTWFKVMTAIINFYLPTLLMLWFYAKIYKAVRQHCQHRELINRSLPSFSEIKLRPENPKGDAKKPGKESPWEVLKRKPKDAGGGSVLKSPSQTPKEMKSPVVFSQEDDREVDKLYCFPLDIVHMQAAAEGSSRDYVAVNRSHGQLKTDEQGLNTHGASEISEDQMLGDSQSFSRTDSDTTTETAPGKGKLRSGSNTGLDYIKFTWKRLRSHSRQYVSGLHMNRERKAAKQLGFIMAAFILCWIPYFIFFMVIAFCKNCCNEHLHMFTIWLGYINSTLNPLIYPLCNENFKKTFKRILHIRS

As a reminder, the Ki is a measure of affinity in units of concentration, obtained from inhibition or displacement. High values mean lower affinity, low ones higher affinity.

This assay addresses Histamine H1 receptor (Homo sapiens, UniProt P35367). In words: Displacement of [3H]-pyrilamine from human H1 histamine receptor expressed in human HEK293 cells. Format: cell-based. A general note: Displacement assays read how much labelled ligand stays bound in the presence of the test substance.
With `C[C@H]1CN(CC[C@H]2CC[C@H](N3C(=O)[C@@H]4[C@H](C3=O)[C@@H]3C=C[C@H]4C3)CC2)CCc2ccc(Cl)cc21`, the Ki came to 312 nM.

Consider `C[C@H]1CN(CC[C@H]2CC[C@H](N3C(=O)[C@@H]4[C@@H]5CC[C@@H](C5)[C@@H]4C3=O)CC2)CCc2ccc(Cl)cc21`, for which the Ki stood at 195 nM.

Take `C[C@H]1CN(CC[C@H]2CC[C@H](NC(=O)c3ccco3)CC2)CCc2ccc(Cl)cc21`: affinity was put at a Ki of 82.1 nM.

The compound `C[C@H]1CN(CC[C@H]2CC[C@H](N3C(=O)CC4(CCCC4)CC3=O)CC2)CCc2ccc(Cl)cc21` yielded a Ki of 293 nM.
